## Binding of CDR-mutated scFvs to a peptide of the spike HR2 region

From the AlphaSeq antibody data of Engelhart et al. 2022 (doi:10.1038/s41597-022-01779-4), copy in the FLAb collection.

Binding partner: SARS-CoV-2 spike HR2 peptide, sequence PDVDLGDISGINAS.

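Library AAYL50 holds single substitutions and randomly drawn double and triple substitutions in the CDRs. The scFvs were displayed on barcoded MATa yeast, the peptide on MATalpha yeast. Mating (16 h, 30 °C) was followed by selection of diploids and sequencing of their barcodes. The ratio of observed to expected reads was calibrated, replicate by replicate, on BCL2-family standards whose Kd was known from biolayer interferometry. The assay was run in three technical replicates.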

Parent: Ab-14, a human scFv built as VH, the linker GGGGSGGGGSGGGGS, VL. Only the CDRs of the light chain vary.
VH: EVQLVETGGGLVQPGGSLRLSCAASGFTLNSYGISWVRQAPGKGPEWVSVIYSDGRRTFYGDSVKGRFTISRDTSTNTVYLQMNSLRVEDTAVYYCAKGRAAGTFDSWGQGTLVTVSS
VL: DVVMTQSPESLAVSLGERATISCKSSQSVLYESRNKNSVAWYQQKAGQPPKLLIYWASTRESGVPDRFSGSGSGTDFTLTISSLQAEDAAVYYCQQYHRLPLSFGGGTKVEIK

Variants are written as CDR1, CDR2 and CDR3 of the light chain (limits as in the source). Parent: KSSQSVLYESRNKNSVA, WASTRES, QQYHRLPLS. Scale: log10 of Kd in nM, estimated from mating counts; low values are strong binders. "ND" means that the variant was in the library but no mating with the target was seen in that replicate; the authors take this as a sign of poor binding, and no number exists. Three control strains display no target. For library AAYL50, 18% of the pairings with them gave a signal, with a median of 4.19 and one signal in twenty below 2.99, so weak values seen in few replicates may be background. Also given: how often the same scFv was detected with the empty control strains, with their mean in brackets. Parent in this assay: reference entry 0.65, copy in this library 1.68.

| # | CDR-L1 | CDR-L2 | CDR-L3 | log10 Kd, replicates | signal with controls |
|---|---|---|---|---|---|
| 1 | KSSQSVLYESRNKNSVA | WASTRES | QQRHRLPLS | ND / ND / ND | 0 of 9 |
| 2 | KSSQSVLYESRRKDSVA | WAFTRES | QQYHRLPLS | 4.53 / 3.94 / ND | 0 of 9 |
| 3 | KSSQSVLYEERNKNSVA | WASTRES | QQYRILPLS | 0.99 / 1.06 / 0.97 | 2 of 9 (4.09) |
| 4 | KSSQSVLYESRNKNSVA | AASTRLS | QQYHRLPHS | 1.06 / 1.17 / 1.01 | 0 of 9 |
| 5 | KSSQSILYESRNKNPVA | WASTVES | QQYHRLPLS | 2.97 / 2.31 / 3.00 | 1 of 9 (3.66) |
| 6 | KSSQSVLYESHNKNSVA | WASTRKS | QQYHRLPCS | ND / ND / ND | 0 of 9 |
| 7 | KSSQSVWYESRNKGSVA | WASTRES | QSYHRLPLS | 2.23 / 2.16 / 2.40 | 5 of 9 (4.49) |
| 8 | KSSQSVLYESRTRNSMA | WASTRES | QQYHRLPLS | 3.24 / 3.20 / 3.85 | 1 of 9 (4.03) |
| 9 | KSSQSVLFESRNKNSVA | WASTRET | QQYHRLQLS | 0.96 / 1.18 / 1.18 | 4 of 9 (3.90) |
| 10 | KSSQSVLYESRNKISVA | WASTRES | QQWHRAPLS | 2.91 / 2.21 / 2.80 | 6 of 9 (3.75) |
| 11 | KSSQSVLYESRNKNSTA | WASTRES | QQYHRLPAW | ND / 5.25 / 3.88 | 5 of 9 (4.58) |
| 12 | KSSQSVLYTSRNKNSVA | MASTRES | QQYHRLPLS | 0.59 / 0.77 / 0.80 | 4 of 9 (4.79) |
| 13 | KSCQSVLYESNNKNSVA | WASTRES | QQYHRLPLS | 1.58 / 1.66 / 1.79 | 9 of 9 (4.87) |
| 14 | KSSTSVMYESRNKNSVA | WASTRES | QQYHRVPLS | ND / ND / ND | 0 of 9 |
| 15 | KSSQDVLYEWRNKNSVA | WASTRES | QQWHRLPLS | 5.67 / ND / 4.32 | 1 of 9 (3.44) |
| 16 | PSSQSVLYESRNSNSVA | WASTRES | QQYHRLPLS | 3.67 / ND / ND | 0 of 9 |
| 17 | KSSQSQLNESRNKNSVA | WASTRES | QQYHRLPPS | -0.07 / 0.39 / 0.17 | 0 of 9 |
| 18 | KSSQSVIYESRNKNSVA | QASTRES | QQYHRGPLS | ND / ND / ND | 5 of 9 (3.88) |
| 19 | KSSQSVLSESRNKNSVR | WASTRES | QQYHRLPLR | ND / ND / ND | 0 of 9 |
| 20 | KSSQSVLYESRNKNSVA | WASTTES | QQYHRNPLS | 3.04 / 4.67 / 3.18 | 2 of 9 (4.32) |
| 21 | KSSQTVLYESRNKNSVA | WASTRES | QLYHRLPWS | ND / ND / ND | 0 of 9 |
| 22 | KSSQSVLYEVRNKNSVA | WASTREH | QQYHRLPLS | 2.91 / ND / 3.23 | 0 of 9 |
| 23 | KSVQSVLYESRNKNSVT | WASTRES | QGYHRLPLS | ND / ND / 4.09 | 0 of 9 |
| 24 | KSSQSVLYESRNFNSVA | WASTRES | QQYIRLPLS | 1.46 / 1.49 / 1.42 | 4 of 9 (4.42) |
| 25 | KSSQSVLYEHRNKNSVA | WASTREP | QCYHRLPLS | 3.05 / 2.98 / 4.06 | 1 of 9 (3.43) |
| 26 | KSSQSVLYESRVKNSVA | WFSTRES | QQYHRLPVS | ND / ND / ND | 0 of 9 |
| 27 | QSSQSVWMESRNKNSVA | WASTRES | QQYHRLPLS | -0.17 / 0.29 / -0.13 | 1 of 9 (2.40) |
| 28 | KSSQSVLTESRNKSSVA | WANTRES | QQYHRLPLS | 0.59 / 0.76 / 0.64 | 1 of 9 (5.68) |
| 29 | KSSQSVLYESRNKNSVA | WASTMES | PQYHRLPLL | ND / ND / 2.96 | 0 of 9 |
| 30 | KSSQSVLYESRNKNSVA | WASTRES | GQYQTLPLS | 3.65 / ND / 3.99 | 3 of 9 (3.91) |
| 31 | YSSQSVAYESRNKNSVA | WASTRES | QSYHRLPLS | 4.41 / ND / ND | 6 of 9 (4.41) |
| 32 | KSSQSVLEESRNKNSVA | WSSWRES | QQYHRLPLS | 0.46 / 0.72 / 0.66 | 0 of 9 |
| 33 | KSSQSVLYESRNKNSVA | WASTRES | QQYHALVLS | 1.02 / 1.20 / 1.11 | 0 of 9 |
| 34 | KSSQSVLYESRNKNSVA | WADERES | HQYHRLPLS | 1.53 / 1.55 / 1.59 | 0 of 9 |
| 35 | KSSQSVLYESRNINSVA | WASTRES | QCYLRLPLS | ND / ND / ND | 1 of 9 (3.90) |
| 36 | KSSQSVLYPSRNKNSVA | WASTRES | QNYHRLPLD | ND / 4.21 / ND | 2 of 9 (4.12) |
| 37 | KSSQSVLKEKRNKNSVA | WASTRES | QQHHRLPLS | ND / 4.80 / ND | 1 of 9 (3.45) |
| 38 | KSSQSVLYEIRNKNSVA | WASTRES | CQYHRLPLS | ND / ND / ND | 1 of 9 (2.72) |
| 39 | KSSQSVLTESRNKNSVA | NASTRHS | QQYHRLPLS | ND / 3.80 / ND | 1 of 9 (5.27) |
| 40 | KSSQSVLYESRNKNSDA | LASTRES | EQYHRLPLS | 5.43 / 4.86 / ND | 3 of 9 (4.65) |
| 41 | KQSQSVLYESRNKNSSA | WASTRES | QQYVRLPLS | 5.73 / 3.87 / 3.87 | 4 of 9 (4.57) |
| 42 | KSSQSVLYKSRNKASVA | WASTRQS | QQYHRLPLS | ND / ND / ND | 1 of 9 (3.99) |
| 43 | FSSQSVLYESRNKNSVA | WASTRES | QQITRLPLS | 1.42 / 1.22 / 1.47 | 0 of 9 |
| 44 | KSSQSVLYMSFNKNSVA | WASTRES | QQYLRLPLS | ND / ND / ND | 0 of 9 |
| 45 | KSFQSVLYESRNKNLVA | WASTRES | QQYHRLPLS | 4.73 / ND / ND | 1 of 9 (4.07) |
| 46 | KSSQSVLYESRNKNSVA | WASTRPS | QQPHRLPLS | ND / ND / ND | 1 of 9 (2.64) |
| 47 | KSSQSVLVESRNKNSVA | WMSTRED | QQYHRLPLS | 1.25 / 1.11 / 1.48 | 1 of 9 (3.45) |
| 48 | KSSQSWLYESRNKNSVA | RASTRES | EQYHRLPLS | 0.82 / 0.92 / 0.76 | 3 of 9 (3.64) |

Top 5 of the variants detected in all replicates, tightest first:

| CDR-L1 | CDR-L2 | CDR-L3 | log10 Kd, replicates | signal with controls |
|---|---|---|---|---|
| QSSQSVWMESRNKNSVA | WASTRES | QQYHRLPLS | -0.17 / 0.29 / -0.13 | 1 of 9 (2.40) |
| KSSQSQLNESRNKNSVA | WASTRES | QQYHRLPPS | -0.07 / 0.39 / 0.17 | 0 of 9 |
| KSSQSVLEESRNKNSVA | WSSWRES | QQYHRLPLS | 0.46 / 0.72 / 0.66 | 0 of 9 |
| KSSQSVLTESRNKSSVA | WANTRES | QQYHRLPLS | 0.59 / 0.76 / 0.64 | 1 of 9 (5.68) |
| KSSQSVLYTSRNKNSVA | MASTRES | QQYHRLPLS | 0.59 / 0.77 / 0.80 | 4 of 9 (4.79) |